Values of other authors as cited in patent US20210369737A1, “PROSTATE FUNCTION SUPPORT FORMULA” (Innovus Pharmaceuticals, Inc., priority 2017, published 2021).

Copper gluconate
solubility in ethanol (ethanol): insoluble in ethanol | solubility in water (water): soluble in water
